CycPeptMPDB entries from one study

Source: CycPeptMPDB (Li et al. 2023), which took these values from Golosov et al. 2021, doi:10.1021/acs.jmedchem.0c01505.

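Conditions beyond the assay type are not listed; see the original paper. The list need not hold all peptides of the study. Entries at the database's floor value (log10 P of -10) are not listed.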

PAMPA measures passive passage through an artificial lipid membrane. RRCK values come from monolayers of low-efflux MDCK cells. EPSA reports exposed polarity as measured by chromatography; lower is less polar. Permeability is in 10^-6 cm/s, converted from the database's log10 values; higher is more permeable. Entries marked < or ≤ lay at or below the stated limit.

Listed for CCCC[C@@H]1NC(=O)[C@H](Cc2ccccc2)N(C)C(=O)[C@@H]2CCCN2C(=O)[C@H](CCCC)N(C)C(=O)[C@H](Cc2ccccc2)NC(=O)CSC[C@@H](C(=O)NC)NC(=O)[C@H](CCCC)N(C)C1=O: PAMPA 40 × 10^-6 cm/s and EPSA 81 Å2.
Listed for CCCC[C@@H]1NC(=O)[C@@H](Cc2ccccc2)NC(=O)CSC[C@@H](C(=O)NC)NC(=O)[C@H](CCCC)NC(=O)[C@@H]2CCCN2C(=O)[C@H](CCCC)NC1=O: PAMPA 1.6 × 10^-6 cm/s.
Listed for CCCC[C@@H]1NC(=O)[C@H](CCCC)N(C)C(=O)[C@H](Cc2ccccc2)N(C)C(=O)CSC[C@@H](C(=O)NC)NC(=O)[C@@H]2CCCN2C(=O)[C@H](CCCC)N(C)C1=O: PAMPA 3.2 × 10^-6 cm/s.
Listed for CCCC[C@@H]1NC(=O)[C@H](Cc2ccccc2)NC(=O)CSC[C@@H](C(=O)NC)NC(=O)[C@H](CCCC)NC(=O)[C@H](CCCC)NC(=O)[C@H](CCCC)NC1=O: PAMPA < 1.3 × 10^-6 cm/s and RRCK 0.6 × 10^-6 cm/s and EPSA 105 Å2.
Listed for CCCC[C@@H]1NC(=O)[C@@H](Cc2ccccc2)NC(=O)CSC[C@@H](C(=O)NC)NC(=O)[C@@H]2CCCN2C(=O)[C@H](CCCC)N(C)C(=O)[C@H](CCCC)NC1=O: PAMPA < 2.5 × 10^-6 cm/s.
Listed for CCCC[C@@H]1NC(=O)[C@H](CCCC)NC(=O)[C@@H]2CCCN2C(=O)[C@H](CCCC)NC(=O)[C@H](Cc2ccccc2)NC(=O)CSC[C@@H](C(=O)NC)NC1=O: PAMPA 1.6 × 10^-6 cm/s and RRCK 0.6 × 10^-6 cm/s and EPSA 96 Å2.
Listed for CCCC[C@@H]1NC(=O)[C@H](CCCC)N(C)C(=O)[C@H](Cc2ccccc2)N(C)C(=O)CSC[C@@H](C(=O)NC)NC(=O)[C@H](CCCC)N(C)C(=O)[C@@H]2CCCN2C1=O: PAMPA 32 × 10^-6 cm/s.
Listed for CCCC[C@@H]1NC(=O)[C@H](CCCC)N(C)C(=O)[C@H](CCCC)NC(=O)[C@H](CCCC)N(C)C(=O)[C@H]([C@@H](C)O)NC(=O)[C@@H](Cc2ccccc2)N(C)C(=O)CSC[C@@H](C(=O)NC)NC(=O)[C@H](Cc2ccccc2)NC1=O: RRCK < 0.35 × 10^-6 cm/s and EPSA 86 Å2.
Listed for CCCC[C@@H]1NC(=O)[C@H](CCCC)NC(=O)[C@H](CCCC)NC(=O)[C@@H]2CCCN2C(=O)[C@H](CCCC)NC(=O)[C@H](Cc2ccccc2)NC(=O)CSC[C@@H](C(=O)NC)NC1=O: PAMPA 0.63 × 10^-6 cm/s and RRCK 0.2 × 10^-6 cm/s and EPSA 91 Å2.
Listed for CCCC[C@@H]1NC(=O)[C@H](CCCC)NC(=O)[C@H](CCCC)N(C)C(=O)[C@@H]2CCCN2C(=O)[C@H](CCCC)N(C)C(=O)[C@H](Cc2ccccc2)NC(=O)CSC[C@@H](C(=O)NC)NC1=O: PAMPA 5 × 10^-6 cm/s and EPSA 77 Å2.
Listed for CCCC[C@@H]1NC(=O)[C@H](CCCC)NC(=O)[C@H](CCCC)N(C)C(=O)[C@H](CCCC)NC(=O)[C@@H](Cc2ccccc2)NC(=O)CSC[C@@H](C(=O)NC)NC1=O: PAMPA < 2 × 10^-6 cm/s.
Listed for CCCC[C@@H]1NC(=O)[C@H](CCCC)N(C)C(=O)[C@H](CCCC)NC(=O)[C@H](CCCC)N(C)C(=O)[C@@H](Cc2ccccc2)NC(=O)CSC[C@@H](C(=O)NC)NC1=O: PAMPA 25 × 10^-6 cm/s and RRCK 1.5 × 10^-6 cm/s and EPSA 75 Å2.
Listed for CCCC[C@@H]1NC(=O)[C@H](CCCC)NC(=O)[C@@H](Cc2ccccc2)NC(=O)CSC[C@@H](C(=O)NC)NC(=O)[C@@H]2CCCN2C(=O)[C@H](CCCC)NC1=O: PAMPA < 0.2 × 10^-6 cm/s.
Listed for CCCC[C@@H]1NC(=O)[C@H](CCCC)N(C)C(=O)[C@@H]2CCCN2C(=O)[C@H](CCCC)NC(=O)[C@H](Cc2ccccc2)N(C)C(=O)CSC[C@@H](C(=O)NC)N(C)C1=O: PAMPA 32 × 10^-6 cm/s and RRCK 6.3 × 10^-6 cm/s and EPSA 66 Å2.
Listed for CCCC[C@@H]1NC(=O)[C@H](CCCC)N(C)C(=O)[C@H](CCCC)NC(=O)[C@H](CCCC)N(C)C(=O)[C@H](CCCC)NC(=O)[C@@H](Cc2ccccc2)N(C)C(=O)CSC[C@@H](C(=O)NC)NC(=O)[C@H](Cc2ccccc2)NC1=O: RRCK < 0.35 × 10^-6 cm/s and EPSA 85 Å2.

The last 2 entries again:

The entry for CCCC[C@@H]1NC(=O)[C@H](CCCC)N(C)C(=O)[C@@H]2CCCN2C(=O)[C@H](CCCC)NC(=O)[C@H](Cc2ccccc2)N(C)C(=O)CSC[C@@H](C(=O)NC)N(C)C1=O lists PAMPA 32 × 10^-6 cm/s and RRCK 6.3 × 10^-6 cm/s and EPSA 66 Å2.
The entry for CCCC[C@@H]1NC(=O)[C@H](CCCC)N(C)C(=O)[C@H](CCCC)NC(=O)[C@H](CCCC)N(C)C(=O)[C@H](CCCC)NC(=O)[C@@H](Cc2ccccc2)N(C)C(=O)CSC[C@@H](C(=O)NC)NC(=O)[C@H](Cc2ccccc2)NC1=O lists RRCK < 0.35 × 10^-6 cm/s and EPSA 85 Å2.